Molecular target: HDAC10 (Homo sapiens (Human), UniProt Q969S8)
Assay: HDAC10 in vitro inhibition, dose response
Type: biochemical
Conditions: Table 1; read-out: Inhibitory Potency (IC50) HDAC 10

By UniProt entry, the sequences of proteins in these tests, tags left out. Where a name states a change or a piece, a line headed by the entry shows the natural chain unless it says otherwise.
UniProt Q969S8: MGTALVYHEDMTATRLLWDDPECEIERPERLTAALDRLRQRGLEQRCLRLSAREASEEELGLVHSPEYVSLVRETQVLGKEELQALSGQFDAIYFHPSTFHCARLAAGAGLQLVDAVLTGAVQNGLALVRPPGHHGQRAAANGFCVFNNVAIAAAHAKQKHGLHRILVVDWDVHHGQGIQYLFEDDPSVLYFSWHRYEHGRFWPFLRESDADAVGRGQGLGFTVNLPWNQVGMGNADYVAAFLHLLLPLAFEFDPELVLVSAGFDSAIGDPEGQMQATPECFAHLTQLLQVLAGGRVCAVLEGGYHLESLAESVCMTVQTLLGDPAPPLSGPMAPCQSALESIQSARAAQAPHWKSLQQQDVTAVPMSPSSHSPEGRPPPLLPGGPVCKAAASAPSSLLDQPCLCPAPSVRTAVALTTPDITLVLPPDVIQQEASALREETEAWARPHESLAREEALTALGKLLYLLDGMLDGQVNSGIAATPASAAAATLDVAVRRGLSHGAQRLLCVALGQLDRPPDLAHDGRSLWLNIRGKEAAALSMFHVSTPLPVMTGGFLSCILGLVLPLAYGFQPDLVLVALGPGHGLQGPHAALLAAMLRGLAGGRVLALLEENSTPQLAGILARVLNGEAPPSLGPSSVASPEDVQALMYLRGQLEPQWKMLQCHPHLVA

Compound `O=C(CCCCCCC(=O)Nc1ccccc1)NO` has an IC50 of 30 nM.

— patent US10807944B2, “HDAC inhibitor compounds and methods of treatment” (priority 2014, dated 2020)
